The list shows a part of the results, in another mix than the full data. Some of these compounds have results that are not shown, active ones among them. The source made the active and inactive calls.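 The calls were made as follows: active = inhibition above the mean plus 3 SD of compounds within the control limits, set per campaign (cut at about 38% in these data); inactive = the rest.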
Experiment: reduced ATP in mature Plasmodium gametocytes – ATP luminescence, HTS, primary screen (AID 743093);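 also: 0% = DMSO wells and 100% = medium only without gametocytes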
Conditions: P. falciparum stage V gametocytes, 24 h, at 10.9 µM, hits give high values

Question: For `CN(C)C1CCCC1OC(=O)C(O)(c1ccccc1)c1ccccc1` (centres undefined), which inhibition is on record?
Answer: The inhibition was inactive: 0.67%.

Question: With `Cc1ccccc1C(=O)NCC1(N2CCCCC2)CCCCC1` as the molecule, how does the inhibition read?
Answer: Its inhibition is inactive: -11.6%.

Question: With `CCN1CCCC(OC(=O)C2(O)c3ccccc3C=Cc3ccccc32)C1` (centres undefined) as the molecule, how does the inhibition read?
Answer: Its inhibition is inactive: 2.5%.

Question: Which inhibition does the source give for `O=C(NCC1(N2CCCCC2)CCCCC1)c1cc([N+](=O)[O-])ccc1Cl` here?
Answer: Its inhibition is inactive: -24.3%.

Question: With `CCN(CC)CC(C)C(C)OC(=O)C(O)(c1ccccc1)c1ccccc1` (centres undefined) as the molecule, how does the inhibition read?
Answer: The inhibition was inactive: 8.95%.

Question: Which inhibition does the source give for `CC(C)N1C(=O)CC2(CCN(CCOC(=O)C(O)(c3ccccc3)c3ccccc3)CC2)C1=O` here?
Answer: The inhibition was inactive: 5.86%.

Question: For `COc1ccc(Br)c(C(=O)NCC2(N3CCCCC3)CCCCC2)c1`, which inhibition is on record?
Answer: Its inhibition is inactive: 4.24%.

Question: Which inhibition does the source give for `CN(C)c1cccc(C(=O)NCC2(N(C)C)CCCCC2)c1` here?
Answer: Its inhibition is inactive: -9.67%.

Question: Which inhibition does the source give for `COc1cccc(C(=O)NCC2(N3CCCCC3)CCCCC2)c1` here?
Answer: Its inhibition is inactive: -1.72%.

— PubChem BioAssay AID743093 (The Scripps Research Institute Molecular Screening Center, 2013)
